What was measured:
[1] = target: T1, plasmin (Homo sapiens, UniProt P00747); conditions: read-out: Plasmin Ki; S-2251, 42.5 nM human plasmin, Dixon plot; previously determined; cited from earlier work
[2] = target: T1, plasmin; assay: Annular fibrin clot assay (FITC-tagged fibrin clot lysis by plasmin); format: biochemical

Chains of the proteins cited; added tags and fusions are not shown. Residues count along the entry.
UniProt P00747, 97-580 limits assumed: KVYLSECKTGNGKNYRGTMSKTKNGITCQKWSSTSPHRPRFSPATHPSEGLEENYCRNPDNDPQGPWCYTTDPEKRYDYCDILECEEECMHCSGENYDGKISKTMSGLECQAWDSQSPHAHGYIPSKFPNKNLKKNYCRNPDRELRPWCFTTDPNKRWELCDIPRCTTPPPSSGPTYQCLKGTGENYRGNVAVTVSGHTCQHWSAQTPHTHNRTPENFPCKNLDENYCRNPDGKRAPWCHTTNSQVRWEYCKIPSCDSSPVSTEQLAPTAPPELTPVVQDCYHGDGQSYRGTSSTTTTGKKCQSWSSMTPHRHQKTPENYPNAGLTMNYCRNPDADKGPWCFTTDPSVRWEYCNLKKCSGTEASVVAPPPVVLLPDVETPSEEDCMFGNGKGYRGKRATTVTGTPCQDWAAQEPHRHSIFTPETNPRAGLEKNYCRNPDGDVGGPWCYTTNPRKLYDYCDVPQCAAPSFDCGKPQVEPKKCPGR
UniProt P00747, 581-810 limits assumed: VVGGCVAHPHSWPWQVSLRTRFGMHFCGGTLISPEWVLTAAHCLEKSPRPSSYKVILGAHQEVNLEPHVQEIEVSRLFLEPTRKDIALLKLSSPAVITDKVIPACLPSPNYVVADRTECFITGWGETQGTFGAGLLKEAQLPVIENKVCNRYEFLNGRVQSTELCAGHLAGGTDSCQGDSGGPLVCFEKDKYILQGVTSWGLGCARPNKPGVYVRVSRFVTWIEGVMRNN

- IC50 [2]: 1140 µM
SMILES: N=C(N)c1ccccc1 [Benzamidine, reference compound]
- Ki [1]: 32 ± 3 µM

— PMC12186753 (ACS pharmacology & translational science, 2025)
